# TDP1 cell noCPT = qHTS for Inhibitors of human tyrosyl-DNA phosphodiesterase 1 (TDP1): qHTS in cells in absence of CPT; AID 686978, 2013; hit rate 15% among 420,000; DT40 Tdp1-/- hTDP1 cells, no CPT, ATP luminescence, 48 h; Potency, µM (top dose mostly 46.2 µM), without a hit: at the highest dose activity change, negative = growth inhibition, hits mostly inhibitors; note: potency is the fitted concentration of half-maximal effect; % is set by controls: 0 for no effect and ±100 for the full control effect; nearly all actives have a fitted effect of over 55% in size
#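 Compound effects on proliferation are scored in DT40 Tdp1-/-;hTDP1 cells in the absence of CPT. ATP levels (CellTiter-Glo luminescence) are recorded after a ≥48 hr, 37 °C incubation.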
# miR-21 FLuc = miR-21 reporter, rising signal. HeLa miR-21 FLuc reporter, luciferase, 48 h. Potency, µM (titrated, usually from 38.3 µM), without a hit: at the top dose reporter change, positive = more light. 340,000 tested, under 10 active. AID 2288; active = well fitted rising curve with a large enough effect; inconclusive = small, poorly fitted or top-dose-only effect; inactive = no such curve, though single readings can be large or run the other way;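 also: % of control where 0% means no effect; miR-21 action dims this reporter so a rising signal means less miR-21 action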
#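 HeLa cells endogenously expressing miR-21, stably carrying CMV-driven firefly luciferase with a downstream miR-21 binding site, 2000 cells/well. Titrations up to approximately 40 uM, 48 hours; luciferase luminescence read.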
# DT40 TDP1 CPT = DT40-hTDP1 cell growth loss with CPT; chicken DT40 Tdp1-/-;hTDP1 cells + 20 nM CPT, ATP luminescence, 48 h; Potency, µM (highest dose often 46.2 µM), for inactives: top-dose activity change, negative = growth inhibition, most hits filed as inhibitors; hit rate 12% among 420,000; note: potency is the fitted concentration of half-maximal effect; % is set by controls: 0 for no effect and ±100 for the full control effect; nearly all actives have a fitted effect of over 55% in size
#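 Cell growth measured by CellTiter-Glo luminescence after a minimum 48 h, 37 C compound exposure with 20 nM CPT in Tdp1-knockout DT40 cells stably expressing hTDP1, seeded 400/well; qHTS titration format.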
# uPA surface inh = blocks generation of uPA at the cell surface; cell surface uPA generation assay, qHTS; Potency, µM (doses to about 38.3 µM), for inactives: at the highest dose activity change, negative = inhibition, usual class: inhibitors; hit rate 0.31% among 330,000; active = well fitted inhibition curve with a large enough effect; inconclusive = small, poorly fitted or top-dose-only effect; inactive = no such curve, though single readings can be large or run the other way; tested in mouse RAW 264.7 cells; note: potency is the fitted concentration of half-maximal effect; % is set by controls: 0 for no effect and ±100 for the full control effect; nearly all actives have a fitted effect of over 55% in size
# TDP1 inh = blocks human tyrosyl-DNA phosphodiesterase 1; Q9NUW8; Potency, µM (highest dose often 130 µM), without a hit: at the top dose activity change, negative = inhibition, most hits filed as inhibitors; recombinant TDP1, AlphaScreen DNA substrate cleavage; hit rate 0.28% among 350,000; AID 485290; note: potency is the fitted concentration of half-maximal effect; % is set by controls: 0 for no effect and ±100 for the full control effect; nearly all actives have a fitted effect of over 40% in size
#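 Recombinant E. coli-expressed Tdp1 (1 nM) preincubated with compound 15 min at RT, then 5'-biotin/3'-phosphotyrosine-FITC DNA substrate (15 nM) added for 5 min. AlphaScreen beads (10 ug/ml) added, 10 min RT; tyrosine-FITC cleavage read as signal loss.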
# Numbers without * were called inactive; ? = inconclusive; . = not tested or not shown; [ ] = remark or other dose. In the library only some 16% were active in any assay of this set; here they are far more common. Unless noted, calls come from the whole dose curve; as a rule, active = well fitted curve in the direction sought with a large enough effect; inconclusive = small, poorly fitted or top-dose-only effect, or another doubt; inactive = no such curve, though single readings can be large; an effect the other way counts as inactive or inconclusive.
SMILES,TDP1 cell noCPT,miR-21 FLuc,DT40 TDP1 CPT,uPA surface inh,TDP1 inh
COc1ccc(OC)c(CNS(=O)(=O)c2ccc3[nH]c4c(c3c2)CCCCC4)c1,.,7.9%,.,.,9.5%
COc1ccc(S(=O)(=O)N2CCN(C)CC2)cn1,3.9%,0.8%,-7.3%,-1.0%,1.1%
C(#CSCc1ccccc1)SCc1ccccc1,-9.6%,.,-11.6%,.,.
C[n+]1cccc(O)c1SCc1ccccc1,4.61µM*,.,5.17µM*,-20.8%,0.3%
COc1ccccc1N(CC(O)COc1c(C)cc(C)cc1C)S(=O)(=O)c1ccccc1 (configuration not stated),?,14.7%,?,-3.8%,2.6%
CCCn1c(N)c(C(=O)CN(C)CC(=O)Nc2c(Cl)cccc2Cl)c(=O)[nH]c1=O,23.1µM*,.,16.4µM*,8.8%,0.9%
CCCn1c(N)c(C(=O)CN(C)CC(=O)Nc2ccc(C)cc2)c(=O)[nH]c1=O,-23.8%,.,-10.1%,2.6%,0.2%
CCCn1c(N)c(C(=O)CN(C)CC(=O)Nc2cc(C)ccc2C)c(=O)[nH]c1=O,13µM*,.,13µM*,0.3%,-2.5%
CCCn1c(N)c(C(=O)CN(C)CC(=O)Nc2ccccc2C(F)(F)F)c(=O)[nH]c1=O,20.6µM*,.,14.6µM*,-14.7%,-2.2%[56.1 µM]
COc1ccccc1NC(=O)CCN1CCCCCC1,-13.6%,-2.7%,-4.0%,-1.5%,3.1%
COc1ccc(Cl)cc1C=CC=NNS(=O)(=O)c1ccc(C)cc1,16.4µM*,.,18.4µM*,1.1%,.
COc1ccc(Cl)cc1C=CC=Nc1ccccc1O,18.4µM*,.,23.1µM*,-8.0%,.
COc1ccccc1/C=C\C=N\n1c(-c2ccc(Cl)cc2Cl)n[nH]c1=S,-11.8%,-2.9%,-16.5%,5.6%,11.3%
COc1ccc(Br)cc1C=NNS(=O)(=O)c1ccc(C)cc1,7.31µM*,.,?,.,.
O=C(O)c1ccccc1/C=N/NC(=S)NC1CCCCC1,0.0%,-6.7%,0.0%,-21.2%,.
CC(OC(=O)c1cccn1C)C(=O)Nc1ccc2c(c1)OCO2 (configuration not stated),-26.9%,3.5%,-3.3%,4.2%,4.9%
Cc1ccccc1Cn1ccc(NC(=O)c2cnn3c(C(F)(F)F)cc(-c4ccco4)nc23)n1,14.6µM*,-4.3%,?,9.1%,11.4%
Cc1ccccc1Cn1ccc(NC(=O)CCSc2nc(-c3ccco3)cc(C(F)(F)F)n2)n1,?,-2.3%,-1.8%,11.0%,2.2%
O=C(Nc1cnn(C23CC4CC(CC(C4)C2)C3)c1)c1cnn2c(C(F)(F)F)cc(-c3ccco3)nc12,15.8µM*,-0.4%,18.4µM*,3.2%,3.3%
COc1ccc(NC(=O)c2cnn3c(C(F)(F)F)cc(-c4ccco4)nc23)cc1OC,?,-14.8%,?,-0.9%,2.0%
CCOC(=O)c1sc(NC(=O)C(CC)Sc2nnc3c4ccccc4n(CC)c3n2)nc1C (configuration not stated),?,-4.3%,6.51µM*,-0.7%,.
CCCn1c2ccccc2c2nnc(SC(CC)C(=O)Nc3cc(C)on3)nc21 (configuration not stated),29.1µM*,-8.4%,?,-11.2%,4.4%
CCC(Sc1nnc2c3ccccc3n(CC)c2n1)C(=O)Nc1ccc(NC(C)=O)cc1 (configuration not stated),20.6µM*,-21.1%,?,.,1.1%
CCC(Sc1nnc2c3ccccc3n(CC)c2n1)C(=O)Nc1nnc(C(C)C)s1 (configuration not stated),?,-2.3%,?,.,-1.1%
Cc1ccc(S(=O)(=O)N2CCOCC2)cc1NS(=O)(=O)c1ccc(F)c(F)c1,-12.8%,.,-13.9%,4.8%,4.6%

# Part of the list above in order of length of the SMILES, high to low.
SMILES,TDP1 cell noCPT,miR-21 FLuc,DT40 TDP1 CPT,uPA surface inh,TDP1 inh
Cc1ccccc1Cn1ccc(NC(=O)CCSc2nc(-c3ccco3)cc(C(F)(F)F)n2)n1,?,-2.3%,-1.8%,11.0%,2.2%
CCC(Sc1nnc2c3ccccc3n(CC)c2n1)C(=O)Nc1ccc(NC(C)=O)cc1 (configuration not stated),20.6µM*,-21.1%,?,.,1.1%
COc1ccccc1/C=C\C=N\n1c(-c2ccc(Cl)cc2Cl)n[nH]c1=S,-11.8%,-2.9%,-16.5%,5.6%,11.3%
COc1ccc(Br)cc1C=NNS(=O)(=O)c1ccc(C)cc1,7.31µM*,.,?,.,.
COc1ccccc1NC(=O)CCN1CCCCCC1,-13.6%,-2.7%,-4.0%,-1.5%,3.1%
C(#CSCc1ccccc1)SCc1ccccc1,-9.6%,.,-11.6%,.,.

# Additional records.
SMILES,TDP1 cell noCPT,miR-21 FLuc,DT40 TDP1 CPT,uPA surface inh,TDP1 inh
CCCCCCCCCCCCCCCC(=O)NCCCC(=O)O,.,.,.,.,5.0%
CCc1cc2c3c(c1)C(C)CC(C)(C)N3C(=O)/C2=C1\SC(=O)NC1=O (configuration not stated),?,0.0%,8.0%,-2.1%,9.6%
COc1cccc(C(=O)Oc2ccc3ccc(O)cc3c2)c1,10.9%,-5.0%,-2.2%,-4.2%,.
COc1cc2c3c(c1)C(C)CC(C)(C)N3C(=O)C2=O (configuration not stated),5.17µM*,4.7%,2.59µM*,-9.3%,2.4%
COc1ccc(C(=O)Oc2cc3c4c(c2)C(C)=CC(C)(C)N4C(=O)C3=O)cc1OC,3.26µM*,-0.3%,4.61µM*,8.1%,5.7%
COc1cccc(C(=O)Oc2cc3c4c(c2)C(C)=CC(C)(C)N4C(=O)C3=O)c1,3.66µM*,12.0%,3.66µM*,?,12.4%
COc1cc2c3c(c1)C(C)=CC(C)(C)N3C(=O)C2=O,0.82µM*,25.3%,0.731µM*,-4.6%,7.7%
COc1ccc(C(=O)Oc2ccc(C(=S)N3CCCC3)cc2)cc1OC,.,-3.4%,.,.,2.8%
CCCCCNC(=O)c1ccc(NC(=O)CC2SC(N3CCCC3)=NC2=O)cc1 (configuration not stated),-20.7%,.,-20.2%,.,.
CC(=O)N1CCN(C(=S)NCCc2ccccc2)CC1,-21.1%,-15.5%,-14.1%,9.2%,0.0%
S=C(NCCc1ccccc1)N1CCN(Cc2ccccc2)CC1,?,-47.8%,29.1µM*,-6.5%,2.3%
Oc1ccc(N2CCN(C(=S)NCCc3ccccc3)CC2)cc1,8.2µM*,-5.6%,6.51µM*,-19.5%,-2.0%
CC(C)CN(C(=O)CCCOc1ccc(Cl)cc1Cl)c1c(N)n(Cc2ccccc2)c(=O)[nH]c1=O,25.9µM*,.,?,-2.4%,.
CCN(C(=O)COC(=O)CCOc1ccc(C(C)(C)C)cc1)c1c(N)n(Cc2ccccc2)c(=O)[nH]c1=O,3.66µM*,.,11.6µM*,6.6%,.
CCN(C(=O)COC(=O)CCCOc1ccc(Cl)cc1C)c1c(N)n(Cc2ccccc2)c(=O)[nH]c1=O,16.4µM*,.,14.6µM*,-16.6%,.
Nc1c(N(Cc2ccccc2)C(=O)COc2ccc(F)cc2Cl)c(=O)[nH]c(=O)n1Cc1ccccc1,-22.5%,.,?,5.1%,-2.0%
Nc1c(N(Cc2ccccc2)C(=O)COc2cccc(Cl)c2)c(=O)[nH]c(=O)n1Cc1ccccc1,?,.,20.6µM*,-9.5%,0.6%
CCCOc1ccc(C(=O)CCC(=O)OCC(=O)N(CC)c2c(N)n(Cc3ccccc3)c(=O)[nH]c2=O)cc1,?,.,-12.3%,-5.3%,.
CC(C)CN(C(=O)CCc1ccccc1Cl)c1c(N)n(Cc2ccccc2)c(=O)[nH]c1=O,-11.3%,.,-7.4%,10.8%,5.9%
COCCN(C(=O)COC(=O)CCOc1ccccc1C)c1c(N)n(Cc2ccccc2)c(=O)[nH]c1=O,-5.2%,.,-10.1%,9.5%,.
COCCn1c(SCC(=O)c2ccc(F)cc2)nc2cc(C(=O)NC3CCCC3)ccc2c1=O,-4.7%,0.9%,1.1%,.,2.6%
